What is called stoichiometry N is a count of units in the complex or per binding partner.

The target in the experiment is Igκ-Nrxn1β^SS4-SS5--ECD-ΔCHO-Myc-6xHis (HEK293S GnTI−, BacMam) (mouse). The experiment in a line: SEC-MALS. A general note: SEC sorts molecules by how far they enter the pores of the column.

The substance “FAM19A1-V5 (HEK293S GnTI−, BacMam) (from UniProt Q7TPG8 20-133) (ligand)” returned a stoichiometry N of 1.

(Values after paper PMC7480106.)
